# Target: T1, HiBit-BRG1 fusion protein (Homo sapiens, UniProt P51532)
# The chains behind the UniProt entries cited, without tags or fusion partners.
# UniProt P51532, whole entry: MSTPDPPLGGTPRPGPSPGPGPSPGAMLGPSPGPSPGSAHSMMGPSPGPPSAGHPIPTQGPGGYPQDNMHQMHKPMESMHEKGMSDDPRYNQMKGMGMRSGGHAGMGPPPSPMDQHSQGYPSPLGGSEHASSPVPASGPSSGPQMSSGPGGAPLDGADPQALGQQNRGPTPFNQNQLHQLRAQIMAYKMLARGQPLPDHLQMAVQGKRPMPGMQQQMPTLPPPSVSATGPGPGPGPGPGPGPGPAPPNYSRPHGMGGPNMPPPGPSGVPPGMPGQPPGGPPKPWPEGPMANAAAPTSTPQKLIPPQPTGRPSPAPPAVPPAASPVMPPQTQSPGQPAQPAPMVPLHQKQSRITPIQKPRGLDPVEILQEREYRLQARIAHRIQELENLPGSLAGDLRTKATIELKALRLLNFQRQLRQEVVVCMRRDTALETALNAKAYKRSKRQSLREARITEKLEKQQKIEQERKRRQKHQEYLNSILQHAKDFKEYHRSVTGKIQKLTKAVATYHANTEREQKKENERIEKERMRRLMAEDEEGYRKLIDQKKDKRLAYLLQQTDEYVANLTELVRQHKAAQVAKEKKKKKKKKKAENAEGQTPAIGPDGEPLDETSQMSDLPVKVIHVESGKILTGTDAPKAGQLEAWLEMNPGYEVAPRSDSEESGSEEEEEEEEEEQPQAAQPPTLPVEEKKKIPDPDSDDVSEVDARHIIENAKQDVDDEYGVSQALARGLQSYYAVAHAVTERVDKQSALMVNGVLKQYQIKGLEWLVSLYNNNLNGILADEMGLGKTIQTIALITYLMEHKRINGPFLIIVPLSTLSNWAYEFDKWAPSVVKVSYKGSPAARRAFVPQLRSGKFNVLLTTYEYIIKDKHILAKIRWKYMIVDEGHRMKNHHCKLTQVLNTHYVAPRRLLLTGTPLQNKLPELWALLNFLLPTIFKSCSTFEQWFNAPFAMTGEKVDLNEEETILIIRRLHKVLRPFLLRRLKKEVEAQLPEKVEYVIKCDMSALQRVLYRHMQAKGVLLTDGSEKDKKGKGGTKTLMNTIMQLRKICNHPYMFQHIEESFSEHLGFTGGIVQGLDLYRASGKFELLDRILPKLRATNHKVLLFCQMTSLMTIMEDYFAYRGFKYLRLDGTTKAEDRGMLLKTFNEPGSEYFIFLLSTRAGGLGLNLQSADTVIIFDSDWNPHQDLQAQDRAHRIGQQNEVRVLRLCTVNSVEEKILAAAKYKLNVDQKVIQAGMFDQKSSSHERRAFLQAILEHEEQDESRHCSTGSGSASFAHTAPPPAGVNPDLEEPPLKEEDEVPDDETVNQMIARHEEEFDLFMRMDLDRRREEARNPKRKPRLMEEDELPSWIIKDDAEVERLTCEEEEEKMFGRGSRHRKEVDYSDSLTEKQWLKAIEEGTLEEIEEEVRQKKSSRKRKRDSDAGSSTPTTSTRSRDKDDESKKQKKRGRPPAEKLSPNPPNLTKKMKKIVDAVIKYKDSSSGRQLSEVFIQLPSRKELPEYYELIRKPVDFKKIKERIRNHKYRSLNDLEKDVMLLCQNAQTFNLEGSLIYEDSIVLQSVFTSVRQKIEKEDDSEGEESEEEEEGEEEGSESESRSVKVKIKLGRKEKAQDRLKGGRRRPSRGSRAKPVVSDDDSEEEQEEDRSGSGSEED
# T1 construct: expressed in transfected cells
# Experiment: HiBiT-BRG1 cell-based degradation assay (Nano-Glo HiBiT lytic detection, 24 h)
# Settings: HeLa, read-out: BRG1 HiBit Degradation Maximum (%)
# Procedure: Procedure: A stable HeLa cell line expressing HiBiT-BRM was generated. On day 0, 5000 cells were seeded in 40 μL of media into each well of 384-well cell culture plates. […] Subsequently plates were incubated for 24 h in a standard tissue culture incubator and equilibrated at room temperature for 15 minutes. Nano-GB HiBiT Lytic Detection System (Promega N3050) reagent was freshly prepared and 20 ul was added to each well. Upon addition of this LgBit-containing reagent, the HiBiT and LgBiT proteins associate to form the luminescent NanoBiT luciferase. The plates were shaken for 10 minutes at room temperature and the bioluminescence read using an EnVision plate reader (PerkinElmer).
# For measurement of BRG1 degradation, a stable HeLa cell line expressing HiBit-BRG1 and LgBit was generated. The same protocol as above was then followed.
# The degradation % was calculated using the following formula: % degradation=100%−100%×(Lumsample−LuMLC)/(LuMHC−LuMLC). DMSO treated cells are employed as High Control (HC) and 2 μM of a known BRM/BRG1 degrader standard treated cells are employed as Low Control (LC).
smiles,measurement,value
"Cc1ncsc1-c1ccc([C@H](C)NC(=O)[C@@H]2C[C@@H](O)CN2C(=O)[C@@H](c2cc(OCCCN3CC(c4cc5nnc(-c6ccccc6O)cc5[nH]4)C3)no2)C(C)C)cc1 [Compound 3, (2S,4R)-4-hydroxy-1-((R)-2-(3-(3-(3-(3-(2-hydroxyphenyl)-5H-pyrrolo[3,2-c]pyridazin-6-yl)azetidin-1-yl)propoxy)isoxazol-5-yl)-3-methylbutanoyl)-N-((S)-1-(4-(4-methylthiazol-5-yl)phenyl)ethyl)pyrrolidine-2-carboxamide, formic acid]",Dmax,< 50%

# Reference: patent US20250302832A1, “PYRAZINE DERIVATIVES AND USES THEREOF” (FOGHORN THERAPEUTICS INC., priority 2022, published 2025)
